# According to PubChem BioAssay AID652025 (National Center for Advancing Translational Sciences (NCATS), 2013):
# This is a selection; strong and weak results do not stand in their true shares. Some salts or complexes appear as unconnected parts, following the source record. Active and inactive are the calls of the source. Rule as the data show it: active = activation above about 50%; inconclusive = mostly about 30% to 49%; inactive = weaker than that.
# Test: qHTS of IL-2 Activators; also: 0% is about no effect
# Settings: IL-2 activation reporter assay, cell-based qHTS; stronger effect = higher value; in transgenic mouse T cells; stimulated with anti-CD3/CD4/CD28 beads
# Text: The adaptive immune response against any infectious agent begins with the activation of an antigen specific T cell. This relatively rare and inert ("naive") T cell undergoes a massive proliferative expansion and differentiation process to generate sufficient number of potent pathogen-specific effector T cells. The effector T cells fight the infection by making cytokines and helping other cells to become fully armed as well. If any naive T cell has antigen receptors (TCRs) that can be activated by self peptides, then a variety of regulatory mechanisms kick in to prevent this cell from performing to its full potential. These processes collectively constitute the phenomenon of immunological tolerance and their failure leads to autoimmunity. One arm of tolerance involves generation of biochemical negative feedback downstream of the TCR (tuning). This is especially relevant to self antigens present in the body over long periods of time (chronic), which form the bulk of our proteome. The negative feedback serves to tune the TCR signaling, such that the ambient antigenic stimulation is nullified intracellularly. Unfortunately, this critical machinery serves as a target for chronic viral, bacterial and parasitic infections (as well as tumors), which can evade a robust immune response, simply by allowing T cells to tune down their signaling to pathogen or malignancy derived antigens. As such, disrupting the tuning in such cases would allow the tolerant T cell to function again and deliver a robust effector response.
# If a therapeutic can restore responsiveness to the tuned down T cell, even for a short time, they could combat the pathogen without any additional immunization. To that end, we have developed a sensitive HTS T cell based assay based on IL-2. This assay will be screened against the Molecular Libraries Small Molecule Repository (MLSMR) to find small molecules that could elicit this response.
# NIH Chemical Genomics Center [NCGC]
# NIH Molecular Libraries Probe Centers Network [MLPCN]
# Assay Submitter (PI): Ron Schwartz, NIAID
# 4 microL (750 cells/well) of unstimulated transgenic mouse T cells (columns 1-3,5-48) are dispensed into Aurora LoBase, black clear-bottom 1536-well assay plates; column 4 receives an identical concentration of transgenic memory T cells as a non-tolerant control. Compounds are then transferred via Kalypsys pin tool equipped with 1536-pin array (10 nL slotted pins, V&P Scientific, San Diego, CA). Following addition of compound and a 60 minute incubation, 1 microL of bead stimulation solution ((0.04 micron Fluospheres (Life technologies, CA) coated with 10ug/ml each anti-CD3 and anti-CD4 (clones 2C11 and GK1.5, BD Biosciences, CA) and mixed with 1ug/ml anti-CD28 (clone PV-1, BD biosciences, CA)). columns 2-48) is added to stimulate the IL-2 response pathway; media is instead added to column 1 as an unstimulated control, while PMA/ionomycin (Sigma Aldrich, MO) is added to column 3 as a control for IL-2 tolerance bypass. The plates are then incubated at 37 degrees C for 18 hours. EGFP and DsRed signal are then detected using an Acumen eX3 Explorer fluorescent plate cytometer. All cells are dispensed in cell media containing EHAA (Quality Biologicals, MD), RPMI (Quality Biologicals, MD), Glutamine (Life Technologies, CA), Penicillin/Streptomycin (Quality Biologicals, MD), 2-ME (Sigma Aldrich, MO) and 10% FBS (Gemini Bioproducts, CA) .
row,SMILES,activation
1,COc1ccc(CN(CCCl)CCCl)cc1Cl,inactive: -3.56%
2,O=[N+]([O-])c1cc([N+](=O)[O-])c(OC2CCCCC2O)c([N+](=O)[O-])c1 (configuration not stated),inactive: -0.684%
3,CN(C)c1cccc(C(=O)NCC2(N3CCCCC3)CCCCC2)c1,inactive: -1.64%
4,O=[N+]([O-])c1cc([N+](=O)[O-])c(Nc2ccc(Cl)cc2)c([N+](=O)[O-])c1,inactive: -4.05%
5,COc1ccc(C(c2nnnn2C2CCCC2)N2CCC(n3c(=O)[nH]c4ccccc43)CC2)cc1 (configuration not stated),inactive: -0.365%
6,Cc1ccc(C(=O)NCC2(N(C)C)CCCCC2)o1,inactive: -1.88%
7,CCCOc1ccc(C(=O)NCC2(N(C)C)CCCCC2)cc1OC,inactive: 1.82%
8,O=C(OC1CN2CCC1CC2)c1ccc([N+](=O)[O-])cc1 (configuration not stated),inactive: -0.411%
9,CN1CCC(Nc2cccc(F)c2)CC1,inactive: 1.53%
10,COc1ccc2c(c1O)-c1c(O)c(OC)cc3c1[C@H](C2)[N+](C)(C)CC3.O=[N+]([O-])c1cc([N+](=O)[O-])c([O-])c([N+](=O)[O-])c1[O-],inactive: 1.05%
11,O=C(NCC1(N2CCCCC2)CCCCC1)c1cncc(Br)c1,inactive: -2.98%
12,O=c1[nH]c2ccccc2n1C1CCN(C(c2cccs2)c2nnnn2C2CCCCC2)CC1 (configuration not stated),inactive: -0.617%
13,COc1ccc(C(=O)NCC2(N3CCOCC3)CCCCC2)cc1OC,inactive: 0.7%
14,O=c1[nH]c2ccccc2n1C1CCN(C(c2ccnc3ccccc23)c2nnnn2C2CCCC2)CC1 (configuration not stated),inactive: -0.287%
15,CCCCn1nnnc1C(c1ccccc1)N1CCC(n2c(=O)[nH]c3ccccc32)CC1 (configuration not stated),inactive: 0.577%
16,COc1cc(C(=O)NCC2(N3CCOCC3)CCCCC2)cc(OC)c1C,inactive: 0.773%
17,O=C(NCC1(N2CCOCC2)CCCCC1)c1cc(Br)ccc1Cl,inactive: -0.442%
18,CCc1cc(C(=O)NCC2(N3CCCCC3)CCCCC2)sc1C,inactive: -1.47%
19,O=C(OC1CN2CCC1CC2)C1c2ccccc2C=Cc2ccccc21 (configuration not stated),inactive: 0.0033%
20,O=C(O)c1cccc(Nc2c([N+](=O)[O-])cc([N+](=O)[O-])cc2[N+](=O)[O-])c1,inactive: 1.07%
21,O=c1[nH]c2ccccc2n1C1CCN(C(c2cccs2)c2nnnn2C2CCCC2)CC1 (configuration not stated),inactive: 0.88%

row,SMILES,activation
1,CCCCn1nnnc1C(c1cccc(OC)c1OC)N1CCC(n2c(=O)[nH]c3ccccc32)CC1 (configuration not stated),inactive: -0.0174%
2,CCOC(=O)N1CCC(Nc2ccc(C)cc2)CC1,inactive: 0.721%
3,COc1cccc(C(c2nnnn2C(C)(C)C)N2CCC(n3c(=O)[nH]c4ccccc43)CC2)c1OC (configuration not stated),inactive: 1.18%
4,N/C(=N\O)c1c(N)no[n+]1[O-],inactive: -0.446%
5,CCOC(=O)C(CC)C1=NC(C)(C)Cc2ccccc21.O=[N+]([O-])c1cc([N+](=O)[O-])c(O)c([N+](=O)[O-])c1 (configuration not stated),inactive: -1.9%
6,N#Cc1ccc(C(=O)NCC2(N3CCCCC3)CCCCC2)cc1,inactive: -0.304%
7,CC(C)(C)OC(=O)N1CCC(N(C(=O)c2ccccc2)c2ccc(Cl)cc2)CC1,inactive: -0.244%
8,CC(C)(C)n1nnnc1C(c1cccc2ccccc12)N1CCC(n2c(=O)[nH]c3ccccc32)CC1 (configuration not stated),inactive: -0.683%
9,CN(C)C1(CNC(=O)c2cccc(C#N)c2)CCCCC1,inactive: -1.34%
10,c1ccc(CN2CCC(Nc3ccccc3)CC2)cc1,inactive: -0.452%
11,Cc1cc(N(CCCl)CCCl)ccc1C=O,inactive: -4.05%
12,CCCN1CCC(Nc2cc(OC)cc(OC)c2)CC1,inactive: -0.161%
13,O=c1[nH]c2ccccc2n1C1CCN(C(c2ccccc2)c2nnnn2C2CCCC2)CC1 (configuration not stated),inactive: -0.26%
14,Cc1ccc(C(=O)NCC2(N3CCCCC3)CCCCC2)o1,inactive: 0.283%
15,Fc1ccccc1NC1CCN(Cc2ccccc2)CC1,inactive: -1.01%
16,Cc1ccc(Nc2c([N+](=O)[O-])cc([N+](=O)[O-])cc2[N+](=O)[O-])cc1,inactive: -2.78%
17,Cc1ccc(NC2(C#N)CCN(Cc3ccccc3)CC2)cc1,inactive: -0.779%
18,COc1cccc(C(c2nnnn2C2CCCCC2)N2CCC(n3c(=O)[nH]c4ccccc43)CC2)c1OC (configuration not stated),inactive: -0.0043%
19,CC(=O)N(c1ccccc1)C1CCNCC1,inactive: -0.86%
20,CCC(c1nnnn1C1CCCCC1)N1CCC(n2c(=O)[nH]c3ccccc32)CC1 (configuration not stated),inactive: 1.09%
21,COc1cc(OC)cc(C(=O)NCC2(N3CCCCC3)CCCCC2)c1,inactive: -0.405%

row,SMILES,activation
1,O=c1[nH]c2ccccc2n1C1CCN(C(c2ccnc3ccccc23)c2nnnn2C2CCCCC2)CC1 (configuration not stated),inactive: 0.114%
2,O=C(NCC1(N2CCCCC2)CCCCC1)c1ccco1,inactive: 0.502%
3,CN(C)c1ccc(C(=O)NCC2(N3CCCCC3)CCCCC2)cc1,inactive: -1.89%
4,Cn1c(=O)[nH]cc(N(CCCl)CCCl)c1=O,inactive: -2.87%
5,Cc1ccccc1NC1(C#N)CCN(Cc2ccccc2)CC1,inactive: 0.885%
6,CCN1CCC(Nc2cccc(F)c2)CC1,inactive: -2.78%
7,COc1ccc(C(c2nnnn2C2CCCCC2)N2CCC(n3c(=O)[nH]c4ccccc43)CC2)cc1 (configuration not stated),inactive: -0.441%
8,CC(C)(C)n1nnnc1C(c1ccnc2ccccc12)N1CCC(n2c(=O)[nH]c3ccccc32)CC1 (configuration not stated),inactive: 1.38%
9,CC(C)(C)OC(=O)N1CCC(Nc2ccccc2)CC1,inactive: -1.52%
10,O=C(O)C1(Nc2ccccc2)CCN(Cc2ccccc2)CC1,inactive: -0.823%
11,NN(c1ccccc1)C1CCN(CCc2ccccc2)CC1,inactive: -0.0724%
12,O=c1[nH]c2ccccc2n1C1CCN(C(c2cc3ccccc3o2)c2nnnn2C2CCCC2)CC1 (configuration not stated),inactive: -0.448%
13,CCCOc1ccc(C(=O)NCC2(N(C)C)CCCCC2)cc1,inactive: 7.73%
14,CCOc1ncccc1C(=O)NCC1(N2CCOCC2)CCCCC1,inactive: 0.862%
15,CN1CCC(Nc2ccc(F)c(Cl)c2)CC1,inactive: -0.127%
16,CN1CCC(Nc2ccc(Cl)cc2)CC1,inactive: 0.499%
17,COc1cccc(C(c2nnnn2C2CCCC2)N2CCC(n3c(=O)[nH]c4ccccc43)CC2)c1OC (configuration not stated),inactive: -0.141%
18,COc1cc(OC)cc(C(=O)NCC2(N3CCOCC3)CCCCC2)c1,inactive: 1.94%
19,COc1cccc(C(=O)N(c2cc(C)cc(C)c2)C2CCN(C(=O)OC(C)(C)C)CC2)c1,inactive: -0.166%
20,CCC(CO)(C(=O)OC1CN2CCC1CC2)c1ccccc1 (configuration not stated),inactive: 0.851%
